# Results taken from patent publication US10112937B2, “P2X7 modulators and methods of use” (Janssen Pharmaceutica NV, priority 2013, dated 2018).
# Amino acid sequences for entries named in this document (tags omitted). A change or cut given only in a name is not applied to a line headed by its entry.
# UniProt Q64663: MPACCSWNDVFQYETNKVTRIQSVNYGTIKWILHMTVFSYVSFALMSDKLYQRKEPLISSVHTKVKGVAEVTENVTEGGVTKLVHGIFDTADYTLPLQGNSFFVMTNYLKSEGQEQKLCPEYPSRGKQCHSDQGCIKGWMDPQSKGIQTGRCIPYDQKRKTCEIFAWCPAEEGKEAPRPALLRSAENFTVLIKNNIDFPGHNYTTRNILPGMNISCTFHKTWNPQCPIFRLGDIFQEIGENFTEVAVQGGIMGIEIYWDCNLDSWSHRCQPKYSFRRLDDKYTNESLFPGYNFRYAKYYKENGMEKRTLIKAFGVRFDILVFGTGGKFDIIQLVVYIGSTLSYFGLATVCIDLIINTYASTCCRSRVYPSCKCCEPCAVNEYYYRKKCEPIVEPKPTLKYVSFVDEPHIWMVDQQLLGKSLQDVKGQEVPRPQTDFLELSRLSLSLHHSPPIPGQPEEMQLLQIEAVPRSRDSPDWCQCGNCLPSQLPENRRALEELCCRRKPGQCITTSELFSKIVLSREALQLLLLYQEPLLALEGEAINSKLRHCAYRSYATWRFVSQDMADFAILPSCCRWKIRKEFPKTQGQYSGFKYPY
# UniProt Q99572: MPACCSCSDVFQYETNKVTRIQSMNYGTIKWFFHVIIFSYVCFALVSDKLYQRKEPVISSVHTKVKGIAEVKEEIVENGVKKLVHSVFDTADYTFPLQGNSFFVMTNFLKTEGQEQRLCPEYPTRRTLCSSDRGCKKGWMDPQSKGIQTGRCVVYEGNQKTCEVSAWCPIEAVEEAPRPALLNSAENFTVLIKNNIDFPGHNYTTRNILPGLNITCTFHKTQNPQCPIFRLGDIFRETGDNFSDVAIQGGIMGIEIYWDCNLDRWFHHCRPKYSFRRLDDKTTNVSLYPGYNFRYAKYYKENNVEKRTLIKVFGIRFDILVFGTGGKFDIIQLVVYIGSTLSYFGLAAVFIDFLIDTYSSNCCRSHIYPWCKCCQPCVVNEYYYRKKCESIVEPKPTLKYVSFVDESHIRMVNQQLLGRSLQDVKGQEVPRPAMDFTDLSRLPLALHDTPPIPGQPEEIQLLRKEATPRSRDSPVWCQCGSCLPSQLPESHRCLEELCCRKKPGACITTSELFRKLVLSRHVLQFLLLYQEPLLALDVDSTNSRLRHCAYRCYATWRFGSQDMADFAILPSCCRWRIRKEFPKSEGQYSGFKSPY
# How the values were obtained:
# rat P2X7 = rat P2X7 (Rattus norvegicus (Rat), UniProt Q64663); assay: Ca2+ flux (FLIPR) in 1321N1 cells expressing recombinant rat P2X7; type: cell-based; conditions: recombinant rat P2X7, 250 μM BzATP;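 also: Calcium-4 dye fluorescence change read 180 s after agonist addition, with cells preincubated 30 min with compound and dye in 96-well plates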
# human P2X7 = human P2X7 (Homo sapiens (Human), UniProt Q99572); assay: Ca2+ flux (FLIPR) in 1321N1 cells expressing recombinant human P2X7; type: cell-based;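 also: cells loaded with Calcium-4 dye, preincubated with test compound for 30 min, fluorescence change read 180 s after agonist addition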
# [1] = 1321N1 cells, recombinant human P2X7, 250 μM BzATP
SMILES,IC50 (rat P2X7) [nM],IC50 (human P2X7; [1]) [nM],"IC50 (human P2X7; Ca2+ flux, 250 μM BzATP, human P2X7 1321N1 cells) [nM]"
"CC1c2ncn(-c3ncccc3F)c2CCN1C(=O)c1cccc(C(F)(F)F)c1Cl (centres unmarked) [Example 21, (2-Chloro-3-(trifluoromethyl)phenyl)(1-(3-fluoropyridin-2-yl)-4-methyl-6,7-dihydro-1H-imidazo[4,5-c]pyridin-5(4H)-yl)methanone]",2320,,
"O=C(c1cccc(C(F)(F)F)c1Cl)N1CCc2c(ncn2-c2ccccn2)C1 [Example 1, (2-Chloro-3-(trifluoromethyl)phenyl)(1-(pyridin-2-yl)-6,7-dihydro-1H-imidazo[4,5-c]pyridin-5(4H)-yl)methanone]",609,,
"CCOC(=O)C1c2ncn(-c3ccccc3)c2CCN1C(=O)c1cccc(Cl)c1Cl (centres unmarked) [Example 27, Ethyl 5-(2,3-dichlorobenzoyl)-1-phenyl-4,5,6,7-tetrahydro-1H-imidazo[4,5-c]pyridine-4-carboxylate]",,164,
"C[C@H]1c2ncn(-c3ccc(F)cn3)c2CCN1C(=O)c1cccc(C(F)(F)F)c1Cl (stereo in doubt) [Example 41, (4S*)-5-{[2-Fluoro-3-(trifluoromethyl)phenyl]carbonyl}-4-methyl-1-pyridin-2-yl-4,5,6,7-tetrahydro-1H-imidazo[4,5-c]pyridine]",,2600,
"Cc1cccc(-n2nnc3c2CCN(C(=O)c2cccc(C(F)(F)F)c2F)C3C)n1 (centres unmarked) [Example 385, (2-fluoro-3-(trifluoromethyl)phenyl)(4-methyl-1-(6-methylpyridin-2-yl)-6,7-dihydro-1H-[1,2,3]triazolo[4,5-c]pyridin-5(4H)-yl)methanone]",,46.1,
"CC1c2ncn(-c3ccccc3)c2CCN1C(=O)c1cccc(C(F)(F)F)c1Cl (centres unmarked) [Example 12, (2-Chloro-3-(trifluoromethyl)phenyl)(4-methyl-1-phenyl-6,7-dihydro-1H-imidazo[4,5-c]pyridin-5(4H)-yl)methanone]",766,,
"C[C@@H]1c2ncn(-c3ncc(F)cn3)c2CCN1C(=O)c1cccc(C(F)(F)F)c1Cl (single isomer, unassigned) [Example 193, (R*)-(2-Chloro-3-(trifluoromethyl)phenyl)(1-(5-fluoropyrimidin-2-yl)-4-methyl-6,7-dihydro-1H-imidazo[4,5-c]pyridin-5(4H)-yl)methanone]",301,,
"CC1c2ncn(-c3ccccn3)c2CCN1C(=O)c1cccc(C(F)(F)F)c1F (single isomer, unassigned) [Example 42, (4R*)-5-{[2-Fluoro-3-(trifluoromethyl)phenyl]carbonyl}-4-methyl-1-pyridin-2-yl-4,5,6,7-tetrahydro-1H-imidazo[4,5-c]pyridine]",,48.8,
"O=C(c1cccc(Cl)c1Cl)N1CCc2c(ncn2-c2ccccc2)C1 [Example 3, (2,3-Dichlorophenyl)(1-phenyl-6,7-dihydro-1H-imidazo[4,5-c]pyridin-5(4H)-yl)methanone]",,89,
"O=C(c1ccc(Cl)cc1Cl)N1CCc2c(nnn2-c2ncccn2)C1 [Example 257, (2,4-dichlorophenyl)(1-(pyrimidin-2-yl)-6,7-dihydro-1H-[1,2,3]triazolo[4,5-c]pyridin-5(4H)-yl)methanone]",,387,
"O=C(c1cccc(C(F)(F)F)c1Cl)N1CCc2c(nnn2-c2ccccn2)C1 [Example 63, 5-{[2-Chloro-3-(trifluoromethyl)phenyl]carbonyl}-1-pyridin-2-yl-4,5,6,7-tetrahydro-1H-[1,2,3]triazolo[4,5-c]pyridine]",,3.8,
"Cc1ccnc(-n2nnc3c2CCN(C(=O)c2cccc(Cl)c2Cl)[C@@H]3C)c1 (single isomer, unassigned) [Example 394, (R*)-(2,3-dichlorophenyl)(4-methyl-1-(4-methylpyridin-2-yl)-6,7-dihydro-1H-[1,2,3]triazolo[4,5-c]pyridin-5(4H)-yl)methanone]",346,,
"CC1c2ncn(-c3ccccn3)c2CCN1C(=O)c1cccc(C(F)(F)F)c1Cl (centres unmarked) [Example 17, (2-Chloro-3-(trifluoromethyl)phenyl)(4-methyl-1-(pyridin-2-yl)-6,7-dihydro-1H-imidazo[4,5-c]pyridin-5(4H)-yl)methanone]",295,33.9,
"CC1c2ncn(-c3ncc(F)cn3)c2CCN1C(=O)c1cccc(C(F)(F)F)c1Cl (centres unmarked) [Example 22, (2-Chloro-3-(trifluoromethyl)phenyl)(1-(5-fluoropyrimidin-2-yl)-4-methyl-6,7-dihydro-1H-imidazo[4,5-c]pyridin-5(4H)-yl)methanone]",,9.6,
"O=C(c1cccc(C(F)(F)F)c1Cl)N1CCc2c(ncn2-c2ccccn2)C1CF (centres unmarked) [Example 32, (2-Chloro-3-(trifluoromethyl)phenyl)(4-(fluoromethyl)-1-(pyridin-2-yl)-6,7-dihydro-1H-imidazo[4,5-c]pyridin-5(4H)-yl)methanone]",,11.1,
"CCC1c2ncn(-c3cnccn3)c2CCN1C(=O)c1cccc(C(F)(F)F)c1Cl (centres unmarked) [Example 15, (2-Chloro-3-(trifluoromethyl)phenyl)(4-ethyl-1-(pyrazin-2-yl)-6,7-dihydro-1H-imidazo[4,5-c]pyridin-5(4H)-yl)methanone]",135,,
"CC1c2n[nH]c(-c3ccccn3)c2CCN1C(=O)c1cccc(C(F)(F)F)c1Cl (centres unmarked) [Example 432, (2-chloro-3-(trifluoromethyl)phenyl)(7-methyl-3-(pyridin-2-yl)-4,5-dihydro-2H-pyrazolo[3,4-c]pyridin-6(7H)-yl)methanone]",,,12.6
"Cc1ccnc(-n2nnc3c2CCN(C(=O)c2cccc(Cl)c2C)C3C)c1 (centres unmarked) [Example 388, (3-chloro-2-methylphenyl)(4-methyl-1-(4-methylpyridin-2-yl)-6,7-dihydro-1H-[1,2,3]triazolo[4,5-c]pyridin-5(4H)-yl)methanone]",,21.9,
"Cc1ccnc(-n2nnc3c2CCN(C(=O)c2ccnc(C(F)(F)F)c2Cl)[C@H]3C)c1 (single isomer, unassigned) [Example 360, (S*)-(3-chloro-2-(trifluoromethyl)pyridin-4-yl)(4-methyl-1-(4-methylpyridin-2-yl)-6,7-dihydro-1H-[1,2,3]triazolo[4,5-c]pyridin-5(4H)-yl)methanone]",> 10000,> 10000,
"O=C(c1cccc(C(F)(F)F)c1Cl)N1CCc2c(ncn2-c2ccc(F)cn2)C1 [Example 315, (2-chloro-3-(trifluoromethyl)phenyl)(1-(5-fluoropyridin-2-yl)-6,7-dihydro-1H-imidazo[4,5-c]pyridin-5(4H)-yl)methanone]",,28.1,
"CC1c2ncn(-c3ccc(F)cn3)c2CCN1C(=O)c1cccc(C(F)(F)F)c1Cl (centres unmarked) [Example 11, (2-Chloro-3-(trifluoromethyl)phenyl)(1-(5-fluoropyridin-2-yl)-4-methyl-6,7-dihydro-1H-imidazo[4,5-c]pyridin-5(4H)-yl)methanone]",592,14.2,
"C[C@@H]1c2ncn(-c3ccc(F)cc3)c2CCN1C(=O)c1cccc(C(F)(F)F)c1Cl (single isomer, unassigned) [Example 46, (4R*)-5-{[2-Chloro-3-(trifluoromethyl)phenyl]carbonyl}-1-(4-fluorophenyl)-4-methyl-4,5,6,7-tetrahydro-1H-imidazo[4,5-c]pyridine]",303,,
"CC1c2ncn(-c3ncccn3)c2CCN1C(=O)c1cccc(C(F)(F)F)c1Cl (centres unmarked) [Example 23, (2-Chloro-3-(trifluoromethyl)phenyl)(4-methyl-1-(pyrimidin-2-yl)-6,7-dihydro-1H-imidazo[4,5-c]pyridin-5(4H)-yl)methanone]",,30,
